Experimental data: ChEMBL document CHEMBL3046181, “Tricolorin A as a natural herbicide” (Molecules, 2013)

Tests used:
Type in all cases: functional, organism-based
Lolium multiflorum [1] = experiment: Herbicidal activity against Lolium multiflorum (Italian ryegrass) assessed as inhibition of root elongation after 5 days
Physalis ixocarpa [2] = experiment: Herbicidal activity against Physalis ixocarpa assessed as inhibition of root elongation after 5 days
Lolium multiflorum [3] = experiment: Herbicidal activity against Lolium multiflorum (Italian ryegrass) assessed as inhibition of seed germination after 5 days
Trifolium alexandrinum [4] = experiment: Herbicidal activity against Trifolium alexandrinum assessed as inhibition of shoot elongation after 5 days
Trifolium alexandrinum [5] = experiment: Herbicidal activity against Trifolium alexandrinum assessed as inhibition of root elongation after 5 days
Triticum aestivum [6] = experiment: Herbicidal activity against Triticum vulgare var. Salamanca (wheat) assessed as inhibition of root elongation after 4 days
Physalis ixocarpa [7] = experiment: Herbicidal activity against Physalis ixocarpa assessed as inhibition of shoot elongation after 5 days
Triticum aestivum [8] = experiment: Herbicidal activity against Triticum vulgare var. Salamanca (wheat) assessed as inhibition of shoot elongation after 4 days
Triticum aestivum [9] = experiment: Herbicidal activity against Triticum vulgare var. Salamanca (wheat) assessed as inhibition of seed germination after 4 days
Lolium multiflorum [10] = experiment: Herbicidal activity against Lolium multiflorum (Italian ryegrass) assessed as inhibition of shoot elongation after 5 days
Physalis ixocarpa [11] = experiment: Herbicidal activity against Physalis ixocarpa assessed as inhibition of seed germination after 5 days
Trifolium alexandrinum [12] = experiment: Herbicidal activity against Trifolium alexandrinum assessed as inhibition of seed germination after 5 days

Measured: inhibition

CCCCC[C@H]1CCCCCCCCCC(=O)O[C@H]2[C@H](O)[C@@H](CO)O[C@@H](O[C@H]3[C@H](O1)O[C@H](C)[C@H](O)[C@@H]3O)[C@@H]2O[C@@H]1O[C@@H](C)[C@H](OC(=O)[C@@H](C)CC)[C@@H](O[C@@H]2O[C@@H](C)[C@H](O)[C@@H](O)[C@H]2O)[C@H]1OC(=O)[C@@H](C)CC [TRICOLORIN A]
active: Lolium multiflorum [1] Dose-dependent effect | Physalis ixocarpa [2] Dose-dependent effect | Lolium multiflorum [3] Dose-dependent effect | Trifolium alexandrinum [4] Dose-dependent effect | Trifolium alexandrinum [5] Dose-dependent effect | Triticum aestivum [6] Dose-dependent effect | Physalis ixocarpa [7] Dose-dependent effect | Triticum aestivum [8] Dose-dependent effect | Triticum aestivum [9] Dose-dependent effect | Lolium multiflorum [10] Dose-dependent effect | Physalis ixocarpa [11] Dose-dependent effect | Trifolium alexandrinum [12] Dose-dependent effect
